The results in this text go back to ChEMBL document CHEMBL3632521, “A study of ad-proline peptidomimetic inhibitor of melanoma and endothelial cell invasion through activity towards MMP-2 and MMP-9” (Medchemcomm, 2015).

Chains of the proteins cited; added tags and fusions are not shown. Lines headed by an entry give the natural chain unless they say otherwise; changes in a name come on top.
UniProt P08253: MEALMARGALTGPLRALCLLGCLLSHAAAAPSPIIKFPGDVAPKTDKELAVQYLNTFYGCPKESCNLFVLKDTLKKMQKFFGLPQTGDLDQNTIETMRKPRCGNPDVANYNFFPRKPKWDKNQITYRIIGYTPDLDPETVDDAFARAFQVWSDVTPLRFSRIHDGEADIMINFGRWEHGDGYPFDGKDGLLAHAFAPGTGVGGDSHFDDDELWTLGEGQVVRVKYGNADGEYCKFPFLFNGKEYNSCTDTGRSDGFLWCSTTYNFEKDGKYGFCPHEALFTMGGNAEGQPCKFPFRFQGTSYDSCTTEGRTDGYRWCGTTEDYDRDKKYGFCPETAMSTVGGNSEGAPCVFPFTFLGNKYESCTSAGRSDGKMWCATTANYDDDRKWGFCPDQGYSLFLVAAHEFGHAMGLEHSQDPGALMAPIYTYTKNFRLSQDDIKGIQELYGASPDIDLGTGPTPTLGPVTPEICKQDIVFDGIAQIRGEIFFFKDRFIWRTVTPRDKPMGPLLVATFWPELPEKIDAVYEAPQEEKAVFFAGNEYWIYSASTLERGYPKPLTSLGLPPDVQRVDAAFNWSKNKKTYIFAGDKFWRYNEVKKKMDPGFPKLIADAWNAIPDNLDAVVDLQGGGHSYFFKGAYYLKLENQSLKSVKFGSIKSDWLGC

Each structure is given as a SMILES string.

This assay addresses 72 kDa type IV collagenase (Homo sapiens, UniProt P08253). The assay is described as follows: Inhibition of gelatinolytic activity of pro-MMP2 in human A375P cells assessed as reduction in active form of protein by gelatin zymography. The class given is cell-based.

`COc1ccc(C(=O)N[C@@H]2C[C@H](C(=O)NO)N(S(=O)(=O)c3ccc(Cl)c(Cl)c3)C2)c(OC)c1`: the inhibition entry is “Dose-dependent effect”.
